Assay results published in ChEMBL document CHEMBL5726931, “Compounds” (2019).

Amino acid sequences for entries named in this document (tags omitted).
UniProt Q96KS0, whole entry: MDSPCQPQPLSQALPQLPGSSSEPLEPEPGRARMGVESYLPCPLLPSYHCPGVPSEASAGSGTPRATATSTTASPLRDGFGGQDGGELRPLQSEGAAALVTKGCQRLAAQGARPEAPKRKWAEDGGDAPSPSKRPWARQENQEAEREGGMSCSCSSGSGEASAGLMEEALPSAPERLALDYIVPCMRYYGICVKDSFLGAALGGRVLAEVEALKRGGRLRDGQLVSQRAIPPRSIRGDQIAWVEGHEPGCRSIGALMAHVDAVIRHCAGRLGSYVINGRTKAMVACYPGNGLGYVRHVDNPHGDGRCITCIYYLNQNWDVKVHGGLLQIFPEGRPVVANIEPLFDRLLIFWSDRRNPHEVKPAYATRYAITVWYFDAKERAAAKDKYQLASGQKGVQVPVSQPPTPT

Biological target: Prolyl hydroxylase EGLN2 (Homo sapiens, UniProt Q96KS0)
Experiment: PHD1 Enzyme Assay: The IC50 values for the PHD1 enzyme (residues 1-407) were determined by mixing increasing amounts of a compound of the invention with a fixed amount of the enzyme (20 nM final concentration) and peptide substrate (Asp-Leu-Asp-Leu-Glu-Ala-Leu-Ala-Pro-Tyr-Ile-Pro-Ala-Asp-Asp-Asp-Phe-Gln-Leu, 1 μM final concentration) and 2-oxoglutarate (0.5 M final concentration) in an assay …

IC50 [nM] | SMILES
49 | N#Cc1ccc(-c2cc(OCc3ccccc3)cc3ncnn23)cc1
52 | CC(C)(C)OC(=O)Nc1cc(-c2ccc(C#N)cc2)n2ncnc2c1
28 | N#Cc1ccc(-c2cc(NC(=O)CC(F)(F)F)cc3ncnn23)cc1
